# Test results reported in US9937115B2, “Oral care compositions with improved flavor” (priority 2010, dated 2018).
# Chains of the proteins cited; added tags and fusions are not shown. Lines headed by an entry give the natural chain unless they say otherwise; changes in a name come on top.
# UniProt O75762: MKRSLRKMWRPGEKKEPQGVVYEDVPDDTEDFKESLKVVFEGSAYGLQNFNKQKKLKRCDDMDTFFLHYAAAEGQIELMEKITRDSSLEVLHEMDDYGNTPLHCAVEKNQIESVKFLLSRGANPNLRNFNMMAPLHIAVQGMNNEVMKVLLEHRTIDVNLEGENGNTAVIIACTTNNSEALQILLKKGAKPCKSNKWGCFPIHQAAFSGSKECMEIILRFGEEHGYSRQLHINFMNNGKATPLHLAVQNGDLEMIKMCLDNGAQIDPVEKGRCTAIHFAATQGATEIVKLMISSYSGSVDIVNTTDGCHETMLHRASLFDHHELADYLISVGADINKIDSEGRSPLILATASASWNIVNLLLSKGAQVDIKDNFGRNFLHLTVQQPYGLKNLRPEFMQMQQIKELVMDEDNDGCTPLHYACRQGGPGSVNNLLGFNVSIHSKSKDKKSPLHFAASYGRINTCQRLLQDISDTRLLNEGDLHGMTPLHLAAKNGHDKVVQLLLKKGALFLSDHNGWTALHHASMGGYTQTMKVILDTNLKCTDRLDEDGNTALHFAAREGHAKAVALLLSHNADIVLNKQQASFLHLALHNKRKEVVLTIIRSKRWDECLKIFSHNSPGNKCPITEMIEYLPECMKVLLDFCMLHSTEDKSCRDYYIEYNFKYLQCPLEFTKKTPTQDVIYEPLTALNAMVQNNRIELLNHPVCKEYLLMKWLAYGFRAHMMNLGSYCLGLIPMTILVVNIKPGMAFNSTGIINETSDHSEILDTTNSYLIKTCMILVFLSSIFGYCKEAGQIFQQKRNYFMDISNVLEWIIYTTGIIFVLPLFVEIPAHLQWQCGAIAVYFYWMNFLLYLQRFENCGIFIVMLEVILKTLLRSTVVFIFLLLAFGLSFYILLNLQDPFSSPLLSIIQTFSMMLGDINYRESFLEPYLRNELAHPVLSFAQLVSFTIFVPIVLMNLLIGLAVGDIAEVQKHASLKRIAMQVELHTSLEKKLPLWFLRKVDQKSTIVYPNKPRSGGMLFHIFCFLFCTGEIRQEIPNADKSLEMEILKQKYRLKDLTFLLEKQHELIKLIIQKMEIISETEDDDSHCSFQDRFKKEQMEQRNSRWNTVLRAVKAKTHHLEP
# Molecular target: TRPA1 receptor (Homo sapiens, UniProt O75762)
# Details: percentage of the control (allyl isothiocyanate) calcium count, material dissolved in DMSO at 100 micromolar, HEK cells with TRPA1
# 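Throughout, for TRPA1 Pre-incubation: values above 100 mean more active than the control.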
substance,measurement,setting,value
Sodium Monofluorophosphate,TRPA1 Direct addition,direct addition,0.19%
same,TRPA1 Pre-incubation,pre-incubation,92%
